Results from article PMC4277633 (Iranian Journal of Pharmaceutical Research : IJPR, 2015).

Tested on: Human Umbilical Vein Endothelial (HUVEC) cell line

Structure (SMILES): c1ccc2c(c1)CCN2 [Compound 1d, indoline]
- selectivity indices (SI): ≥ 10
